Measured values from PMC7380959 (Science Advances, 2020).

Molecular target: H77 E1E2 (full-length E1E2, wild type) (Hepatitis C virus genotype 1a, isolate …)
Assay: ELISA

binding result: binds
B1: AR3C IgG (antibody, V domains shown)
VH: VQLLEQSGAEVKKPGSSVKVSCETSGGTFDNYALNWVRQAPGQGLEWIGGVVPLFGTTRNAQKFQGRVTISDDKSTGTGHMELRSLRSEDTAVYYCVRSVTPRYCGGGFCYGEFDYWGQGTLVTVSS
VL: EIELTQSPATLSVSPGERATLSCRASQSVSSNLAWYQQKPGQAPRLLIYGASTRATGIPARFSGSGSGTEFTLTVSRLEPEDSAVYFCQQYYRSPLTFGGGTKVEIK
